# Measured vapor pressure values of organic chemicals

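The numbers are reported measurements, compiled and curated for the OPERA QSAR suite. A listed value is a point estimate from one report or more. Method and conditions are not stated for these values. Where a salt, mixture or single isomer is drawn, the source does not say that exactly this form was tested. Some upstream entries may be estimates or bounds without being marked so.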

Vapor pressure is log10 of mmHg; the set covers 15 to 30 °C, mostly 20 to 25 °C.
Cells with "–" have no entry in this list.
"via" names the databases from which the curators took the value.

structure (SMILES) | name | vapor pressure (log10 mmHg) | via
CCCCCCCCCCCC(=O)N[C@@H](CCCNC(=N)N)C(=O)OCC.Cl | Ethyl-N2-dodecanoyl-L-argininate hydrochloride | -5.389 | eChemPortal
CCCCCCOc1ccc(C(c2ccccc2)(c2ccccc2)c2ccccc2)cc1OCCCCCC | 1,2-Bis(hexyloxy)-4-(triphenylmethyl)benzene | -9.557 | eChemPortal
CCCCCCC1C(=O)CCC1C(=O)OC (stereo unspecified) | Methyl 2-hexyl-3-oxocyclopentanecarboxylate | -3.504 | eChemPortal
CO[Si](CCCS[Si](C)(C)C(C)(C)C)(OC)OC | – | -2.803 | eChemPortal
O=C(c1ccccc1)C1(O)CCCCC1 | (1-Hydroxycyclohexyl)(phenyl)methanone | -3.824 | eChemPortal
COc1c(C)c2c(c(O)c1C/C=C(\C)CCC(=O)O)C(=O)OC2 | Mycophenolic acid | -6.495 | eChemPortal
COS(=O)(=O)[O-].COc1ccc(N(C)/N=C/C2=[N+](C)c3ccccc3C2(C)C)cc1 | C.I. Basic Yellow 28 | -6.76 | eChemPortal
CCCCCCC(O)C/C=C\CCCCCCCC(=O)OCC(COC(=O)CCCCCCC/C=C\CC(CCCCCC)OC(=O)/C=C\C(=O)O)OC(=O)CCCCCCC/C=C\CC(O)CCCCCC (stereo partly drawn) | Ricinoleyl monomaleate triglyceride | -10.76 | eChemPortal
CC1C(C)(C)C2=C(c3ncncc3CC2)C1(C)C (stereo unspecified) | – | -3.921 | eChemPortal
CCCCCCCC/C=C\CCCCCCCCCCCC(=O)NCCCCCCCCCCCCCCCCCC | 13-Docosenamide, N-octadecyl-, (13Z)- | -6.435 | eChemPortal
C=CCCCCCCCCC(=O)O[Si](C)(C)C | Trimethylsilyl 10-undecenoate | -3.824 | eChemPortal
CC1CNC(=O)O1 (stereo unspecified) | 5-Methyl-2-oxazolidinone | -1.738 | eChemPortal
CCCNCC | 1-Propanamine, N-ethyl- | 1.779 | eChemPortal
COc1ccc(Cl)cc1 | Benzene, 1-chloro-4-methoxy- | -3.614 | OCHEM
N[C@@H](COP(=O)(O)O)C(=O)O | Dexfosfoserine | -7.023 | eChemPortal
CC(CCN(C)C)N(C)C (stereo unspecified) | N,N,N',N'-Tetramethyl-1,3-butanediamine | 0.215 | PubChem
O=C1c2ccccc2C(=O)N1C[C@H](O)CNc1ccc(N2CCOCC2=O)cc1 | – | -9.408 | eChemPortal
CC(C)C(C)(C)C(C)(C)C(C)(C)S | tert-Dodecanethiol | -0.824 | eChemPortal
CC(C)(O)CCC(C)(C)O | 2,5-Dimethylhexane-2,5-diol | -2.745 | eChemPortal
CCC(C=O)CC | 2-Ethylbutyraldehyde | 1.228 | OCHEM
Cl.OCCNc1ccc2c(c1)OCO2 | Hydroxyethyl-3,4-methylenedioxyaniline HCl | -7.262 | eChemPortal
N=C(c1ccccc1)c1ccccc1 | 1,1-Diphenylmethanimine | -3.668 | eChemPortal
C[C@]12CC[C@@H]3c4ccc(O)cc4CC[C@H]3[C@@H]1C[C@@H](O)[C@@H]2O | Estriol | -9.706 | OCHEM
Clc1ccc(-c2c(Cl)cc(Cl)c(Cl)c2Cl)cc1 | 2,3,4,4',6-Pentachlorobiphenyl | -4.595 | OCHEM
O=C1CCC([C@H]2CC[C@H](c3ccc(F)c(F)c3)CC2)CC1 | – | -6.25 | eChemPortal
Cc1[nH]n(-c2ccccc2)c(=O)c1N=Nc1ccccc1 | C.I. Solvent Yellow 16 | -8.202 | eChemPortal
CC(C)CCCC(C)CCCCCCCCCC(=O)OCC(C)(C)COC(=O)CCCCCCCCCC(C)CCCC(C)C (stereo unspecified) | – | -9.869 | eChemPortal
C1=CC2C=CC1C2 | 2,5-Norbornadiene | 1.786 | eChemPortal
CCOC(=O)C[C@H](NCCC[Si](OC)(OC)OC)C(=O)OCC | Diethyl N-[3-(trimethoxysilyl)propyl]-L-aspartate | -4.377 | eChemPortal
CC/C=C/CCC | (3E)-3-Heptene | 1.722 | OCHEM
Clc1ccccc1-c1nc(-c2ccccc2)c(-c2ccccc2)n1C1(c2ccccc2Cl)N=C(c2ccccc2)C(c2ccccc2)=N1 | – | -8.142 | eChemPortal
CCCN(CCc1cccs1)C1CCc2c(O)cccc2C1.Cl (stereo unspecified) | Rotigotine hydrochloride | -9.467 | eChemPortal
CC(C)CCC(C)C(C)O (stereo unspecified) | 2-Heptanol, 3,6-dimethyl- | -0.326 | eChemPortal
COC(=O)CCS | Methyl 3-mercaptopropionate | 0.331 | eChemPortal
CC(C)[C@@H]1CC[C@@H](C)C[C@H]1OC(=O)OCCO | Menthyl glycol carbonate | -4.238 | eChemPortal
Clc1cc(Cl)c(Cl)c(-c2ccccc2)c1 | 2,3,5-Trichlorobiphenyl | -3.524 | OCHEM
Clc1ccccc1-c1c(Cl)ccc(Cl)c1Cl | PCB 045 | -3.183 | OCHEM
CCCCCOc1ccc2c(oc3c(F)c(OCC)ccc32)c1F | 3-Ethoxy-4,6-difluoro-7-pentyloxy-dibenzofurane | -7.389 | eChemPortal
Nc1ccc(OCCO)c(N)c1.O=S(=O)(O)O | – | -4.184 | eChemPortal

The first 4 entries again:

structure (SMILES)	name	vapor pressure (log10 mmHg)	via
CCCCCCCCCCCC(=O)N[C@@H](CCCNC(=N)N)C(=O)OCC.Cl	Ethyl-N2-dodecanoyl-L-argininate hydrochloride	-5.389	eChemPortal
CCCCCCOc1ccc(C(c2ccccc2)(c2ccccc2)c2ccccc2)cc1OCCCCCC	1,2-Bis(hexyloxy)-4-(triphenylmethyl)benzene	-9.557	eChemPortal
CCCCCCC1C(=O)CCC1C(=O)OC (stereo unspecified)	Methyl 2-hexyl-3-oxocyclopentanecarboxylate	-3.504	eChemPortal
CO[Si](CCCS[Si](C)(C)C(C)(C)C)(OC)OC	–	-2.803	eChemPortal

Source: data files of OPERA 2.9 (Mansouri et al.), github.com/kmansouri/OPERA.